The list is not random: actives were taken first. Their share in the collection is about 16%.
miR-21 reporter – raises the signal of a miR-21 reporter; AID 2288; 340,000 tested, under 10 active; Potency, µM (doses to about 38.3 µM), inactives show at the top dose reporter change, positive = more light; HeLa miR-21 FLuc reporter, luciferase, 48 h; active = well fitted rising curve with a large enough effect; inconclusive = small, poorly fitted or top-dose-only effect; inactive = no such curve, though single readings can be large or run the other way;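 note: % of control where 0% means no effect; miR-21 action dims this reporter so a rising signal means less miR-21 action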
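Luminescence from a firefly luciferase reporter carrying a miR-21 binding site downstream, stably expressed under a CMV promoter in HeLa cells that make miR-21 endogenously, reports miRNA modulation after 48 h compound exposure up to approximately 40uM final.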
TDP1 cell noCPT – qHTS for Inhibitors of human tyrosyl-DNA phosphodiesterase 1 (TDP1): qHTS in cells in absence of CPT. DT40 Tdp1-/- hTDP1 cells, no CPT, ATP luminescence, 48 h. Potency, µM (series often up to 46.2 µM), without a hit: top-dose activity change, negative = growth inhibition, actives largely listed as inhibitors. actives 15% (n = 420,000). AID 686978, 2013; also: potency is read from the fitted curve at half-maximal effect; % is scaled to controls: 0 for no effect and ±100 for the full control effect; nearly all actives have a fitted effect of over 55% in size
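Chicken DT40 Tdp1-/- cells stably complemented with human TDP1 were seeded at 400 cells/well with DMSO in place of 20 nM camptothecin. After compound pinning, cells grew at least 48 hr at 37 °C; viability read by CellTiter-Glo luminescence.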
TDP1 block – TDP1 (human) enzyme inhibition; Q9NUW8; recombinant TDP1, AlphaScreen DNA substrate cleavage; Potency, µM (titrated, usually from 130 µM), for inactives: top-dose activity change, negative = inhibition, most hits filed as inhibitors; actives 0.28% (n = 350,000); also: potency is read from the fitted curve at half-maximal effect; % is scaled to controls: 0 for no effect and ±100 for the full control effect; nearly all actives have a fitted effect of over 40% in size
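Enzyme-compound mixtures sat 15 min at room temperature, followed by a 5 min reaction with 15 nM final substrate and 10 min with AlphaScreen beads. Recombinant human Tdp1 was used at 1 nM final.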
TDP1 cell CPT – growth inhibition of DT40 Tdp1-/-;hTDP1 cells with camptothecin (screen for TDP1 inhibitors); chicken DT40 Tdp1-/-;hTDP1 cells + 20 nM CPT, ATP luminescence, 48 h; Potency, µM (series often up to 46.2 µM), for inactives: at the top dose activity change, negative = growth inhibition, most hits filed as inhibitors; actives 12% (n = 420,000); also: potency is read from the fitted curve at half-maximal effect; % is scaled to controls: 0 for no effect and ±100 for the full control effect; nearly all actives have a fitted effect of over 55% in size
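Cell growth measured by CellTiter-Glo luminescence after a minimum 48 h, 37 C compound exposure with 20 nM CPT in Tdp1-knockout DT40 cells stably expressing hTDP1, seeded 400/well; qHTS titration format.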
uPA surface inh – blocks generation of uPA at the cell surface; cell surface uPA generation assay, qHTS; Potency, µM (series often up to 38.3 µM), without a hit: at the top dose activity change, negative = inhibition, hits mostly inhibitors; actives 0.31% (n = 330,000); AID 540303; active = well fitted inhibition curve with a large enough effect; inconclusive = small, poorly fitted or top-dose-only effect; inactive = no such curve, though single readings can be large or run the other way; tested in mouse RAW 264.7 cells; also: potency is read from the fitted curve at half-maximal effect; % is scaled to controls: 0 for no effect and ±100 for the full control effect; nearly all actives have a fitted effect of over 55% in size
* hit, by the source's call; [ ] = another dose, or the depositor's remark. Unless noted, calls follow the shape of the dose curve; as a rule, active = well fitted curve in the direction sought with a large enough effect; inconclusive = small, poorly fitted or top-dose-only effect, or another doubt; inactive = no such curve, though single readings can be large; an effect the other way counts as inactive or inconclusive.

How did Cn1c(SCC(=O)NCc2ccccc2)nnc1C1CC1 do in these assays?
miR-21 reporter: -0.4%; TDP1 cell noCPT: 23.8%; TDP1 block: -2.1%; TDP1 cell CPT: -11.6%; uPA surface inh: -3.2%

How did COc1ccc(OC)c(CN2C(=O)CN(S(C)(=O)=O)CC2(C)C(=O)NC(C)C)c1 (configuration not stated) do in these assays?
TDP1 cell noCPT: 2.8%; TDP1 cell CPT: -2.5%

How did Cc1ccc(S(=O)(=O)N2CCC(=O)N(C(COCc3cccc(Cl)c3)Cc3ccccc3)CC2)cc1 (configuration not stated) do in these assays?
miR-21 reporter: 0.5%; TDP1 cell noCPT: 18.4µM*; TDP1 block: 0.0%; TDP1 cell CPT: -90.9%; uPA surface inh: -16.7%

What do the screens show for `Cc1ccc(S(=O)(=O)N2CCC(=O)N(CCOCc3ccc(Cl)cc3)CC2)cc1`?
miR-21 reporter: 3.3%; TDP1 cell noCPT: 16.4µM*; TDP1 block: -3.9%; TDP1 cell CPT: 11.6µM*; uPA surface inh: -0.5%

Results for CCOC(=O)N1CCN(Cc2ccc3c(c2)CN(C(=O)c2noc4c2CCCC4)CCO3)CC1 ?
TDP1 cell noCPT: 20.6µM*; TDP1 cell CPT: -13.1%[9.04 µM]

What do the screens show for `CCOC(=O)N1CCN(Cc2ccc3c(c2)OCO3)CC1`?
miR-21 reporter: -6.0%; TDP1 cell noCPT: -14.1%; TDP1 cell CPT: 5.4%; uPA surface inh: 3.2%

What do the screens show for `COc1ccc(Cl)cc1S(=O)(=O)N1CCCC(C(=O)N2CCCC2)C1` (configuration not stated)?
miR-21 reporter: 2.5%; TDP1 cell noCPT: 3.3%; TDP1 block: 1.1%; TDP1 cell CPT: inconclusive; uPA surface inh: -1.4%

What do the screens show for `CC(=O)c1ccc(N2CCN(C(=O)C3CCN(S(=O)(=O)c4cccs4)CC3)CC2)cc1`?
miR-21 reporter: 9.1%; TDP1 cell noCPT: 13µM*; TDP1 block: 0.6%; TDP1 cell CPT: inconclusive; uPA surface inh: -2.3%

How did CCOC(=O)c1c(C)[nH]c(C)c1S(=O)(=O)N1CCC(C(=O)N2CCN(c3cccc(C)c3C)CC2)CC1 do in these assays?
miR-21 reporter: inconclusive; TDP1 cell noCPT: inconclusive; TDP1 block: 8.3%; TDP1 cell CPT: 18.4µM*

What do the screens show for `O=C(C1CCC(CNS(=O)(=O)c2cccs2)CC1)N1CCCCC1` (configuration not stated)?
miR-21 reporter: 9.3%; TDP1 cell noCPT: inconclusive; TDP1 block: 5.6%; TDP1 cell CPT: -13.8%; uPA surface inh: 2.2%

How did Cc1cccc(N2CCN(C(=O)C3CCC(CNS(=O)(=O)c4cccs4)CC3)CC2)c1C (configuration not stated) do in these assays?
miR-21 reporter: inconclusive; TDP1 cell noCPT: 13µM*; TDP1 block: 4.7%; TDP1 cell CPT: inconclusive; uPA surface inh: -14.5%

What do the screens show for `CCOC(=O)c1c(C)[nH]c(C)c1S(=O)(=O)N1CCC(C(=O)N2CCN(c3ccc(F)cc3)CC2)CC1`?
miR-21 reporter: -2.1%; TDP1 cell noCPT: -21.0%; TDP1 block: 3.4%; TDP1 cell CPT: -26.3%

Results for Cc1cccc(N2CCN(C(=O)C3CCN(S(=O)(=O)c4cccs4)CC3)CC2)c1C ?
miR-21 reporter: 1.7%; TDP1 cell noCPT: 14.6µM*; TDP1 block: 1.8%; TDP1 cell CPT: 20.6µM*

What do the screens show for `O=C(OCc1ccccc1)C1CCN(S(=O)(=O)c2cccs2)CC1`?
TDP1 cell noCPT: -2.9%; TDP1 cell CPT: -29.2%

How did O=S(=O)(c1cccs1)N1CCN(c2ccc(O)cc2)CC1 do in these assays?
miR-21 reporter: 7.3%; TDP1 cell noCPT: 2.59µM*; TDP1 block: 2.7%; TDP1 cell CPT: 2.59µM*; uPA surface inh: -4.4%

Results for CN(C(=O)C1CCN(S(=O)(=O)c2cccs2)CC1)c1ccccc1 ?
miR-21 reporter: -4.3%; TDP1 cell noCPT: 16.4µM*; TDP1 block: 2.5%; TDP1 cell CPT: inconclusive; uPA surface inh: -0.1%

Results for CCOC(=O)C(=O)C1=C(N2CCOCC2)/C(=C\c2ccc(F)cc2)CC1 ?
miR-21 reporter: -19.7%; TDP1 cell noCPT: inconclusive; TDP1 block: -2.7%; TDP1 cell CPT: -28.3%; uPA surface inh: -5.1%

Results for O=C(CN1C(=O)C2(SCC(=O)N2c2cccc(Cl)c2)c2ccccc21)NC1CCCCC1 (configuration not stated) ?
miR-21 reporter: -0.2%; TDP1 cell noCPT: 18.4µM*; TDP1 block: 4.2%; TDP1 cell CPT: 16.4µM*

What do the screens show for `Cc1cc(C)cc(N2C(=O)CSC23C(=O)N(CC(=O)NC2CCCCC2)c2ccccc23)c1` (configuration not stated)?
miR-21 reporter: -5.6%; TDP1 cell noCPT: inconclusive; TDP1 block: 0.0%; TDP1 cell CPT: 20.6µM*

Results for COc1cccc(N2C(=O)CSC23C(=O)N(CC(=O)Nc2cccc(Cl)c2)c2ccccc23)c1 (configuration not stated) ?
miR-21 reporter: 13.1%; TDP1 cell noCPT: inconclusive; TDP1 block: 2.1%; TDP1 cell CPT: 18.4µM*

At a glance, part of the list above:
How did Cc1cccc(N2CCN(C(=O)C3CCC(CNS(=O)(=O)c4cccs4)CC3)CC2)c1C (configuration not stated) do in these assays?
miR-21 reporter: inconclusive; TDP1 cell noCPT: 13µM*; TDP1 block: 4.7%; TDP1 cell CPT: inconclusive; uPA surface inh: -14.5%

What do the screens show for `CCOC(=O)c1c(C)[nH]c(C)c1S(=O)(=O)N1CCC(C(=O)N2CCN(c3ccc(F)cc3)CC2)CC1`?
miR-21 reporter: -2.1%; TDP1 cell noCPT: -21.0%; TDP1 block: 3.4%; TDP1 cell CPT: -26.3%

Results for Cc1cccc(N2CCN(C(=O)C3CCN(S(=O)(=O)c4cccs4)CC3)CC2)c1C ?
miR-21 reporter: 1.7%; TDP1 cell noCPT: 14.6µM*; TDP1 block: 1.8%; TDP1 cell CPT: 20.6µM*

Next part:
Results for CCOC(=O)c1nn(-c2ccc(OCC)cc2)c2nc(-c3ccco3)c(C#N)c(=O)n12 ?
miR-21 reporter: -19.5%; TDP1 cell noCPT: 23.1µM*; TDP1 block: -2.6%; TDP1 cell CPT: inconclusive; uPA surface inh: -2.3%

How did COc1cccc(NC(=S)N(CCCN2CCCC2)Cc2ccco2)c1 do in these assays?
miR-21 reporter: -9.6%; TDP1 cell noCPT: -5.1%; TDP1 block: -2.6%; TDP1 cell CPT: -10.7%; uPA surface inh: -0.5%

How did COc1cccc(NC(=S)N(CCCN2CCCC2)Cc2cccn2Cc2ccc(Cl)cc2)c1 do in these assays?
miR-21 reporter: -3.8%; TDP1 cell noCPT: 18.4µM*; TDP1 block: 6.9%; TDP1 cell CPT: inconclusive; uPA surface inh: 2.1%

What do the screens show for `CSc1cccc(NC(=S)N(CCCN2CCCC2)Cc2cccn2Cc2ccc(Cl)cc2)c1`?
miR-21 reporter: 1.7%; TDP1 cell noCPT: 9.2µM*; TDP1 block: 7.9%; TDP1 cell CPT: inconclusive; uPA surface inh: -4.2%

What do the screens show for `CSc1cccc(NC(=S)N(CCCN2CCCC2)Cc2cccs2)c1`?
miR-21 reporter: -5.1%; TDP1 cell noCPT: inconclusive; TDP1 block: 4.9%; TDP1 cell CPT: inconclusive; uPA surface inh: -7.9%

Results for S=C(Nc1cccc(Cl)c1)N(CCCN1CCCC1)Cc1cccn1Cc1ccc(Cl)cc1 ?
miR-21 reporter: -4.9%; TDP1 cell noCPT: 18.4µM*; TDP1 block: 10.5%; TDP1 cell CPT: inconclusive; uPA surface inh: 3.5%

Results for O=C(C1COc2ccccc2O1)N1CCN(c2nc3ccc(F)cc3s2)CC1 (configuration not stated) ?
miR-21 reporter: -1.6%; TDP1 cell noCPT: 20.6µM*; TDP1 block: 5.2%; TDP1 cell CPT: inconclusive

High-throughput results: PubChem, National Center for Advancing Translational Sciences (NCATS)
